Experimental data reported in PubChem BioAssay AID580 (SRMLSC, 2007).
The entries are a selection whose mix differs from that of the whole data set. Some tests of the compounds listed are not included; inactive here does not mean inactive elsewhere. Calls of active or inactive are those of the source.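 The calls were made as follows: active = viability at or under a set limit in both replicates, limit being median viability minus 3 SD (cut at about 48% in these data, passing the limit was not always enough); inconclusive = at or under the limit in just one replicate; inactive = at or above the limit in both replicates.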

Experiment: H69AR cell proliferation blockers – human, duplicate replicates, primary screen (AID 580);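 also: 100% = mean luminescence of untreated wells and 0% = no signal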
Conditions: H69AR lung tumor cells viability, ATP luminescence, 72 h; at 10 µM; active compounds read low
For O=C(OC1CN2CCC1CC2)C(CO)(c1ccccc1)c1ccccc1 (stereo unspecified), the viability was inactive: 88.5%.
